{"source": "patent US9044388B2", "about": "“Dry eye treatment” (Ocular Research of Boston, Inc., priority 2005, dated 2015)", "origin": "cited, not measured here", "conditions": "result in words; cited from earlier work"}
{"substance": "polyoxyethylene (40) stearate [Myrj-52]", "values": [{"measurement": "solubility", "value": "water-soluble"}]}
{"substance": "sorbitan monolaurate [Span 20]", "values": [{"measurement": "solubility", "value": "water insoluble"}]}
